Data as given in PubChem BioAssay AID488965 (Broad Institute, 2010).
The entries are a selection whose mix differs from that of the whole data set. Calls of active or inactive are those of the source. Cut-off read from the data, not from the text of the source: active = inhibition above about 30% (passing the limit was not always enough); inconclusive = no clear call, values can overlap the other calls.

test system: PvdQ acylase [Pseudomonas aeruginosa LESB58]; assay: P. aeruginosa PvdQ acylase inhibitors, primary screen, biochemical, fluorescence, plate reader and imaging, single point (AID 488965); settings: purified PvdQ acylase, at 10 µM, stronger effect = higher value;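 note: 0% = vehicle neutral wells and 100% = reference inhibitor wells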

| Structure (SMILES) | inhibition |
| --- | --- |
| Cc1cc(=O)[nH]c(N[N+](=O)[O-])n1 | inactive: 4.8% |
| O=C(OC1CN2CCC1CC2)C12CC3CC(CC(C3)C1)C2 (stereo unspecified) | inactive: -18.6% |
| O=[N+]([O-])c1cc([N+](=O)[O-])c(-c2ccn[nH]2)s1 | inactive: 6.18% |
| CC(C)NC(=O)NP(=O)(Oc1ccccc1)Oc1ccccc1 | inactive: -3.09% |
| CCN(CC)C(=S)SC(NC=O)C(Cl)(Cl)Cl (stereo unspecified) | inactive: -8.62% |
| O=C(OC1CN2CCC1CC2)c1cccc2[nH]cnc12 (stereo unspecified) | inactive: -2.28% |
| ClCCSc1nnc(-c2cccnc2)o1 | inactive: -10.3% |
| COC(=O)C1(C)COP(=O)(N2CCCCCC2)OC1 (stereo unspecified) | inactive: -12.7% |
| CC(C)c1ccc(OP(=O)(Nc2ccccn2)Oc2ccccc2F)cc1 (stereo unspecified) | inactive: 3.99% |
| Cc1ccc(OP(=O)(Nc2ccc([N+](=O)[O-])cn2)Oc2ccc(C)cc2)cc1 | inactive: 25.4% |
| Cc1ccc2nc3c(c(C)c2c1)CC(C(Cl)Cl)S3 (stereo unspecified) | inactive: -11.4% |
| O=[N+]([O-])c1ccc(-c2cc([N+](=O)[O-])c(O)c([N+](=O)[O-])c2)cc1 | inactive: 13.7% |
| COc1cc(C(=O)NCC2(N3CCOCC3)CCCCC2)ccc1OCC(C)C | inactive: 1.51% |
| C[As](=O)(O)c1cccc(C(=O)O)c1 | inactive: -22.7% |
| O=[As](O)(c1ccc(O)cc1)c1ccccc1O | inactive: -11.9% |
| CCOP1(=S)c2c(C)nn(CCC#N)c2N=C(c2ccc(F)cc2)N1C (stereo unspecified) | inactive: 1.33% |
| CN(C(=O)Cc1ccccc1)[C@@H]1CC[C@]2(CCCO2)C[C@H]1N1CCCC1 | inactive: -12.5% |
| N#CCCN(C(=O)COC(=O)C(O)(c1ccccc1)c1ccccc1)c1ccc(F)cc1 | inactive: 1.33% |
| CN(C(=O)Cc1ccc(Cl)c(Cl)c1)[C@H]1CC[C@@]2(CCCO2)C[C@@H]1N1CCCC1 | inactive: -7.69% |
| O=[N+]([O-])c1ccc2c(c1)nnn2O | inactive: 7.42% |
| CN(C)C(=O)c1cc([N+](=O)[O-])cc2c1-c1c(cc([N+](=O)[O-])cc1[N+](=O)[O-])C2=O | inactive: 1.38% |

| Structure (SMILES) | inhibition |
| --- | --- |
| NC(=O)Nc1ccc([As](=O)(O)O)cc1 | inactive: -1.49% |
| Nc1ccccc1[As](=O)(O)c1ccccc1 | inactive: 7.96% |
| O=C(O)COc1ccc([As](=O)(O)O)cc1[N+](=O)[O-] | inactive: 14.8% |
| O=P(Nc1nccs1)(Oc1ccccc1)Oc1ccccc1 | inactive: 0.264% |
| O=P(Nc1nccs1)(c1ccccc1)c1nc2ccccc2s1 (stereo unspecified) | inactive: -8.16% |
| CCOP1(=S)c2c(C)nn(CCC#N)c2N=C(c2ccccc2F)N1C (stereo unspecified) | inactive: -8.41% |
| CS(=O)(=O)c1cc([N+](=O)[O-])c2no[n+]([O-])c2c1 | inactive: -7.19% |
| CCOP(=O)(Nc1cccc2ccccc12)OCC | inactive: 5.25% |
| COc1cc(C2NCCC3(OCCO3)C2(C)C)cc(OC)c1OC (stereo unspecified) | inactive: -17.3% |
| Cc1ccc(NCCc2c([N+](=O)[O-])cc([N+](=O)[O-])cc2[N+](=O)[O-])cc1 | inactive: -10.5% |
| Nc1cccc2c([As](=O)(O)O)cccc12 | inactive: -14.9% |
| CCCOP(=S)(Nc1nc(N)cc(=O)[nH]1)OCCC | inactive: -10.2% |
| Cc1cccc(OCC(=O)OC2CN3CCC2CC3)c1 (stereo unspecified) | inactive: 2.22% |
| O=[As](O)(c1cccc(O)c1)c1cccc(O)c1 | inactive: 1.29% |
| O=C(OC1CN2CCC1CC2)c1ccc(Cl)cc1 (stereo unspecified) | inactive: -3.82% |
| CS(=O)(=O)c1ccc(Cl)c(NC(=O)COC(=O)C(O)(c2ccccc2)c2ccccc2)c1 | inactive: -9.43% |
| O=[As](O)(O)c1cccnc1 | inactive: -15.5% |
| COc1cc(C(=O)NCC2(N3CCOCC3)CCCCC2)cc(Cl)c1OC(C)C | inactive: -5.31% |
| CC(C)/C=N\N=C(\N)N[N+](=O)[O-] | inactive: -14.8% |
| CN(C(=O)Cc1ccc(Cl)c(Cl)c1)[C@@H]1CCCC[C@H]1N1CCCC1 | inactive: -12% |
| CC1(CBr)Cn2c(nc3ccccc3c2=O)S1 (stereo unspecified) | inactive: -13% |

| Structure (SMILES) | inhibition |
| --- | --- |
| COc1ccccc1CNC(=O)COC(=O)C(O)(c1ccccc1)c1ccccc1 | inactive: -9.43% |
| CC(C)(C)C(=O)NC(Sc1ncccn1)C(Cl)(Cl)Cl (stereo unspecified) | inactive: -1.46% |
| Clc1n[nH]nc1-c1nn[nH][15n]1 | inactive: 4.99% |
| CCOP(=O)(NC(=NC(C)c1ccccc1)NC(C)c1ccccc1)OCC (stereo unspecified) | inactive: -0.959% |
| O=P1(Nc2ccccn2)COc2ccccc2OC1 | inactive: 0.583% |
| CCC1=CC2Cc3nc4ccc(Cl)cc4c(N)c3C(C1)C2 (stereo unspecified) | inactive: 7.6% |
| CCOP(=O)(Nc1ccc(C)cn1)OCC | inactive: -17.7% |
| Nc1cccc([As](=O)(O)c2ccccc2)c1 | inactive: -4.46% |
| Cc1ccc(OCC(=O)OC2CN3CCC2CC3)cc1 (stereo unspecified) | inactive: -13% |
| O=[As](O)(c1cccs1)c1cccs1 | inactive: -3.03% |
| O=P1(Nc2ccc(Br)cn2)COc2ccccc2OC1 | inactive: -17.2% |
| NS(=O)(=O)c1cccc(NC(=O)COC(=O)C(O)(c2ccccc2)c2ccccc2)c1 | inactive: -10.8% |
| O=P1(Nc2ncccn2)COc2ccccc2OC1 | inactive: -8.59% |
| CN(C)C1(CNC(=O)c2ccc(S(C)(=O)=O)cc2)CCCCC1 | inactive: 1.2% |
| CCCC1OP(=O)(Nc2ccccc2)OCC1CC (stereo unspecified) | inactive: -1.44% |
| O=C(/C=C/c1ccccc1)OC1CN2CCC1CC2 (stereo unspecified) | inactive: -15.4% |
| CC1CCC(C(C)C)C(OP(=O)(Nc2ccccn2)c2ccccc2)C1 (stereo unspecified) | inactive: 8.41% |
| Cc1ccc(C(=O)OC2CN3CCC2CC3)cc1 (stereo unspecified) | inactive: 2.03% |
| Cc1nn(-c2ccccc2)c2c1P(=O)(N1CCOCC1)N(C)C(c1ccccc1)=N2 (stereo unspecified) | inactive: 7.01% |
